One test addresses Recombinant Csk (Homo sapiens, UniProt P41240). The test can be described thus: Csk tyrosine kinase activity, poly E4Y / 32P-ATP phosphorylation assay. As to conditions: read-out: IC50 (μM) Csk; Table 3, Formula II compounds; NI = no inhibition at 100 μg/mL. How it is done: (§1) The tyrosine kinase activity of Src, Csk and FGFr was determined using poly E4Y and ^32P-ATP. Briefly, enzymes were assayed in a reaction mixture consisting of 0.15 M EPPS-NaOH (pH 8.0) with 6 mM MgCl2, 0.2 mM γ^32P-ATP (0.2-0.4 mCi/μmol), 10% glycerol, 0.1% Triton X-100, and poly E4Y. Poly E4Y is a synthetic peptide whose phosphorylation is measured in this assay by the addition of the radioactively labeled phosphate from the ATP (Budde et al., 1995). For screening assays, 50 μg/ml poly E4Y was used, and for Ki determinations variable concentrations (0, 20, 30, 75, and 150 μg/ml) of poly E4Y were used. When ATP was varied (0, 50, 100 and 250 μM), poly E4Y was kept constant at 150 μg/ml.

Chains of the proteins cited; added tags and fusions are not shown. Residues count along the entry.
UniProt P41240, whole entry: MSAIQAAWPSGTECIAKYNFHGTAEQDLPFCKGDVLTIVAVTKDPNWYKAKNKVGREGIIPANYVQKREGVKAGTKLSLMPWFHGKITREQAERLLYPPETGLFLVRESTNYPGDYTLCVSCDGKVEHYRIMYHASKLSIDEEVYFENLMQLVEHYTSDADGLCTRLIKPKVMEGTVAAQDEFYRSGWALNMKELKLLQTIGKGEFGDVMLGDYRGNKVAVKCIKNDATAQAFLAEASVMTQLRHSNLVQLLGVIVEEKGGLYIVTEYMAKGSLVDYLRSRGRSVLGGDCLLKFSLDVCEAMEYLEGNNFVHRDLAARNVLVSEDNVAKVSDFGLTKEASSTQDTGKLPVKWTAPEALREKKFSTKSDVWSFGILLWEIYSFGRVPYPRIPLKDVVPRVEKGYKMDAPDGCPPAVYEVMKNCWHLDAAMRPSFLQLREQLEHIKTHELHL
UniProt P12931, whole entry: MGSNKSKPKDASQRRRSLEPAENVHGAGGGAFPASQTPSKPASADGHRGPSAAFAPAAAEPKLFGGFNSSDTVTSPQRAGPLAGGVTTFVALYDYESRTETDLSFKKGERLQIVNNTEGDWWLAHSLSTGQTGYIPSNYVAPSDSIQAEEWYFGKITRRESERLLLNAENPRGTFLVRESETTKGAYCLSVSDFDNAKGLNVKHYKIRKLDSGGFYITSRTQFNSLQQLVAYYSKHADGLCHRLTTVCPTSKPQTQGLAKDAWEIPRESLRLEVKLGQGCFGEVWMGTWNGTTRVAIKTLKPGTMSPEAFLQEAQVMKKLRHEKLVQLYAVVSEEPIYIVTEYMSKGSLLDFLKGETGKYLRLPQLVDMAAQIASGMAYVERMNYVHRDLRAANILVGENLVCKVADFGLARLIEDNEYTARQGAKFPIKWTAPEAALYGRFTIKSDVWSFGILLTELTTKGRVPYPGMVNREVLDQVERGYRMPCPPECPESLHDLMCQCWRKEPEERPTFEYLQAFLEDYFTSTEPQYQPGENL
UniProt P11362, 22-822 limits assumed: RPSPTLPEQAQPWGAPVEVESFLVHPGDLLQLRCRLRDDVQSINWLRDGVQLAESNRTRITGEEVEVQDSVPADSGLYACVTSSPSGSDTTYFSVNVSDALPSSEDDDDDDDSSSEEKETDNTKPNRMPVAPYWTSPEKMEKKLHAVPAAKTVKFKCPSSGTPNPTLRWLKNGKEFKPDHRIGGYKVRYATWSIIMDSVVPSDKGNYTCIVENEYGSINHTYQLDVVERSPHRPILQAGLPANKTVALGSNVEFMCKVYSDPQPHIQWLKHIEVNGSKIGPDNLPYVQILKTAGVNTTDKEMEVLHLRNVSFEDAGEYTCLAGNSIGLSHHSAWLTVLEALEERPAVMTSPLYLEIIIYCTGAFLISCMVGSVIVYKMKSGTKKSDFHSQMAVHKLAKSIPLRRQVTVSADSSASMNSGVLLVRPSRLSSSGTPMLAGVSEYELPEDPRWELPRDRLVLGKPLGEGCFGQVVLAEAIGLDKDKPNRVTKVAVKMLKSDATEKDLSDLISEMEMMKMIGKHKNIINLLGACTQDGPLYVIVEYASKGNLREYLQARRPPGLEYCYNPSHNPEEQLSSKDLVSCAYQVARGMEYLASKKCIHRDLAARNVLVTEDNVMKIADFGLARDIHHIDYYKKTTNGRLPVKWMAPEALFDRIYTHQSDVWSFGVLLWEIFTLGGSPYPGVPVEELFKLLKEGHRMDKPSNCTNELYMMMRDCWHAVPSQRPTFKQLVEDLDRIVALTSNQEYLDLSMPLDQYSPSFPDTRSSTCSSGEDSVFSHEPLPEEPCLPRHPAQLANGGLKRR

In the next test the target is Recombinant human Src (Homo sapiens, UniProt P12931). The test can be described thus: Src tyrosine kinase activity, poly E4Y / 32P-ATP phosphorylation assay. As to conditions: read-out: IC50 (μM) Src; Table 3, Formula II compounds; NI = no inhibition at 100 μg/mL. On the procedure:
Recombinant human Src was expressed using the baculovirus-insect cell system and purified as published (Budde et al., 1993 and 2000). Recombinant Csk and the FGF receptor (FGFr) were expressed as […] fusion proteins using the pGEX expression vector and E. coli, and purified as described (Sun & Budde, 1995).
as §1, with “μg/ml. […]” for “μg/ml.”

The next test concerns the target FGF receptor (FGFr) (UniProt P11362). Put plainly: FGFr tyrosine kinase activity, poly E4Y / 32P-ATP phosphorylation assay. As to conditions: read-out: IC50 (μM) FGFr; Table 3, Formula II compounds; NI = no inhibition at 100 μg/mL. On the procedure: as §1

Usually IC50 stands for the concentration that inhibits the measured activity by half. Consider `Cc1ccc(S(=O)(=O)Nc2ccc(Oc3ccc(C(=O)O)cc3)cc2NS(=O)(=O)c2ccc(C)cc2)cc1`, for which the figures for the 50% inhibitory concentration (IC50) on Recombinant Csk, on Recombinant human Src and at FGF receptor (FGFr) were 118 µM, 9 µM and 24 µM, respectively.

These data come from US20060004197A1, “Sulfonamide-based compounds as protein tyrosine kinase inhibitors” (priority 2004, published 2006).
